Ab-95 light chain CDR variants: yeast mating affinities

Binding partner: SARS-CoV-2 spike HR2 peptide, sequence PDVDLGDISGINAS.

Ab-95 is the parent antibody, in scFv form: VH, then three GGGGS repeats, then VL. The heavy chain is unchanged in all variants.
VH: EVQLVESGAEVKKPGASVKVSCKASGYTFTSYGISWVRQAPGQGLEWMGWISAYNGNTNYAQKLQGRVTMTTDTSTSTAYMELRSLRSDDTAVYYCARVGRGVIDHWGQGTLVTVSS
VL: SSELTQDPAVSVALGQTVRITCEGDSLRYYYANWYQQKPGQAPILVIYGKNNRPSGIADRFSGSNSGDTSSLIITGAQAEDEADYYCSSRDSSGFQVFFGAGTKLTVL

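Phage display of a naive human antibody library on the peptide gave the parent. AAYL52 was designed without a model: most single CDR substitutions and a random sample of double and triple ones. The scFvs were displayed on barcoded MATa yeast, the peptide on MATalpha yeast. After mating in shaken culture at 30 °C for 16 h, diploids were selected and their barcode pairs sequenced. Read counts were normalised to the haploid input and turned into Kd by a linear fit to BCL2-family pairs of known affinity, for each replicate. Each pool was mated in three replicate cultures.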

Variants are written as CDR1, CDR2 and CDR3 of the light chain (limits as in the source). Parent: EGDSLRYYYAN, GKNNRPS, SSRDSSGFQVF. Scale: log10 of Kd in nM, estimated from mating counts; low values are strong binders. Where no diploid with the target was found in that replicate, the entry reads "nd": below detection, most likely a poor binder, though not proof of it. Nonspecific signal, from three strains lacking the peptide, appeared in 28% of pairings of library AAYL52, centred on 3.91 (5% of these signals below 2.90); values are not corrected for it. The control count says in how many pairings with the empty strains this scFv gave a signal, with their mean in brackets.

CDR-L1,CDR-L2,CDR-L3,log10 Kd (nM) by replicate,signal with controls
EGDSLRYMYAN,GKYNRPS,TSRDSSGFQVF,3.36 4.26 2.35,2/9 (3.61)
EGDSLRYYYAN,GKNNRPV,SSRDPNGFQVF,2.61 2.97 2.24,6/9 (3.87)
EGDSLRYYYQN,GKYNRPS,SSRDESGFQVF,nd nd nd,2/9 (3.68)
EGQLLRYYYAN,GKNNRPS,SSMDSSGFQVF,3.72 nd nd,3/9 (4.03)
EGDSLSYYYAN,GKNMRPS,SSRDSSGFQVS,2.08 2.22 2.19,4/9 (4.07)
EGDSLRYYFAN,GKENRPS,SSRDKSGFQVF,1.79 1.53 1.69,2/9 (3.96)
EGDSLRYYHAN,GKNNRPS,SKRISSGFQVF,nd nd nd,0/9
EGDSLRYTYAN,GKNNSPW,SSRDSSGFQVF,2.51 2.30 3.28,1/9 (3.65)
CGDSLRYYYAN,GCNNRPS,SSRGSSGFQVF,nd 3.62 nd,0/9
EGWSLRYYYAN,GKNNRPS,SSRDDSGFGVF,3.70 2.91 nd,2/9 (4.14)
EGDSLRYPYAN,GKNNRNS,SSRDASGFQVF,2.93 2.41 2.54,8/9 (4.00)
EGDSLRGYYAN,GKNNWPS,SSRDSSGFQVF,5.34 nd nd,1/9 (5.22)
EGDSLRYYYAN,GENNRPS,SSRDSIGFQVF,4.50 2.23 3.35,4/9 (4.14)
FGDSLRYYYAN,GKANRPS,TSRDSSGFQVF,3.98 3.64 2.59,3/9 (4.11)
EIDSLRYYYAN,GKNNRPS,SSRDSSGFQVY,nd 4.20 3.28,1/9 (4.49)
EGDSLRYYFAN,GKNNRPS,SSRDYSGFQVL,3.08 3.14 3.46,1/9 (3.22)
EGISLRYYYWN,GKNNRPS,SSRDYSGFQVF,3.11 nd nd,2/9 (3.97)
EGDSLKYYYHN,GKNNRPT,SSRDSSGFQVF,3.50 nd nd,2/9 (3.89)
EGDSLRYYYAN,GKNNRPS,FSRDSSGSQVC,3.86 nd nd,2/9 (3.60)
EGDSLRWYYPN,GKNNRPS,SSRDSSGFQVF,2.66 2.47 2.27,3/9 (3.87)
EGDSLRYYYAN,GKGNRPS,STSDSSGFQVF,nd nd nd,3/9 (4.13)
NGDSLRAYYAN,GKNNRPS,SWRDSSGFQVF,2.03 2.60 1.91,0/9
EGDSLRHYAAN,GKNNRPS,SSRDSSGFQSF,2.41 2.22 2.46,3/9 (3.87)
EGDSLRYNYAN,GKRNRPS,SSRDSSGFQVD,2.33 1.77 1.77,5/9 (4.77)
EGDSDRYYYSN,GKNNRPS,SSRDSTGFQVF,2.59 2.54 1.87,2/9 (3.40)
PGSSLRYYYAN,GKNNRPS,SSRDSSGFLVF,3.47 nd nd,1/9 (3.72)
ETDSLGYYYAN,GKGNRPS,SSRDSSGFQVF,2.23 2.29 1.85,4/9 (3.49)
ESDSLRYYYAN,QKNNRPS,SSRDSSGFQCF,nd nd nd,4/9 (3.97)
VGDSWRYYYAN,GKNNRPS,SSRDSSGNQVF,2.97 2.68 2.07,3/9 (3.62)
EGDSLRYYYAN,GKVNRPS,SSRDSWGPQVF,nd 3.80 nd,4/9 (3.77)
EGDSLRAYYTN,GKNNQPS,SSRDSSGFQVF,4.69 3.45 nd,2/9 (4.56)
EGDSLRYYYAN,GKNKRPS,SSRDSMGFQVT,3.33 nd nd,3/9 (3.60)

Source: Engelhart et al. 2022 (doi:10.1038/s41597-022-01779-4), MIT Lincoln Laboratory and A-Alpha Bio; data file from the FLAb repository.